Results as given in article PMC7611940, “A Conformation Selective Mode of Inhibiting SRC Improves Drug Efficacy and Tolerability” (Cancer Research, 2021).

Amino acid sequences for entries named in this document (tags omitted). A change or cut given only in a name is not applied to a line headed by its entry.
UniProt P54753: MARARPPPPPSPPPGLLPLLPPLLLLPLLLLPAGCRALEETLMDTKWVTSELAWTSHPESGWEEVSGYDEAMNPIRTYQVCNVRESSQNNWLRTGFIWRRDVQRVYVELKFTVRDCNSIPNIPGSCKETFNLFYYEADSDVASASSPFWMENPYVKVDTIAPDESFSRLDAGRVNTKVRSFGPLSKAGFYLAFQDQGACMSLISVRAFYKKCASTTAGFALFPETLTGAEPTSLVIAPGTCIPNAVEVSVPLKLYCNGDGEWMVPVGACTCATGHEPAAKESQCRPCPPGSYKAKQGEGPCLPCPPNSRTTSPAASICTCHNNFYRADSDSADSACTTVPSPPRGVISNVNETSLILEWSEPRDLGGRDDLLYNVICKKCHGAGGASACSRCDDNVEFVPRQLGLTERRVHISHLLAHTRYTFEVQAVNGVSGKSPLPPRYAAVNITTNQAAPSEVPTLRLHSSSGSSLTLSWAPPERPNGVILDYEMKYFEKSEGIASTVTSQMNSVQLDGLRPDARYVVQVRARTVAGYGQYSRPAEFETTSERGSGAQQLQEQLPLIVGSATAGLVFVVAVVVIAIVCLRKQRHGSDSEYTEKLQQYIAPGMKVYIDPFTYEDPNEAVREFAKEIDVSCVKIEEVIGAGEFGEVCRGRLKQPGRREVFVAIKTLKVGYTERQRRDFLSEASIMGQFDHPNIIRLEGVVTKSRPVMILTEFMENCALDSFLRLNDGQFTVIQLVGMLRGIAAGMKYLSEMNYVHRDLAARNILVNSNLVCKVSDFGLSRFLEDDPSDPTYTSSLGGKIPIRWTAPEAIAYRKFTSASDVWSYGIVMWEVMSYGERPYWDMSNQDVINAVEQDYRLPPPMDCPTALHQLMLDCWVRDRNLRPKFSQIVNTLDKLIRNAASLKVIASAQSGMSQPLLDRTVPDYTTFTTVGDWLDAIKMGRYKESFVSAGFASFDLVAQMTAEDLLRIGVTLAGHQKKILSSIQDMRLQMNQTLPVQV
UniProt Q92918, whole entry: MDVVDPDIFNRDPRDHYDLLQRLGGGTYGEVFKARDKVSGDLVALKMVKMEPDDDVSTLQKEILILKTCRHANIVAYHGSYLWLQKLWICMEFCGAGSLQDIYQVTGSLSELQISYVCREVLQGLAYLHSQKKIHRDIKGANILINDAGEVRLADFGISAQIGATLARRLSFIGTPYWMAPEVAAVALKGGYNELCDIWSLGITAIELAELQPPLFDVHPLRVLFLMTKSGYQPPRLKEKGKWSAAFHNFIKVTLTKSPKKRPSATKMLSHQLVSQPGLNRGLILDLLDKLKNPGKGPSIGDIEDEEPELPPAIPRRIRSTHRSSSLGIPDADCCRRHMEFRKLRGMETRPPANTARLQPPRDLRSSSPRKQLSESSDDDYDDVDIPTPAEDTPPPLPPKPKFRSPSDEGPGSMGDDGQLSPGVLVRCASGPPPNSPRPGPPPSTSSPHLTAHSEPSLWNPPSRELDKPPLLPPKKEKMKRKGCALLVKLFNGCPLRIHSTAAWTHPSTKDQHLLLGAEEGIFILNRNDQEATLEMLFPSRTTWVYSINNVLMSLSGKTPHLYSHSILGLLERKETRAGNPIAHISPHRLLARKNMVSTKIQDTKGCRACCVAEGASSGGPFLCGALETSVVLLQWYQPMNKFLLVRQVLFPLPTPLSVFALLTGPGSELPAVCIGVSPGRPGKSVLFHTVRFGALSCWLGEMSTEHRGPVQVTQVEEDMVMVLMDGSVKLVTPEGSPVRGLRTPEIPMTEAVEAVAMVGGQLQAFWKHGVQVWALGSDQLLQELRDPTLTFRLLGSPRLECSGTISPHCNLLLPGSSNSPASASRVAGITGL
UniProt O75914, whole entry: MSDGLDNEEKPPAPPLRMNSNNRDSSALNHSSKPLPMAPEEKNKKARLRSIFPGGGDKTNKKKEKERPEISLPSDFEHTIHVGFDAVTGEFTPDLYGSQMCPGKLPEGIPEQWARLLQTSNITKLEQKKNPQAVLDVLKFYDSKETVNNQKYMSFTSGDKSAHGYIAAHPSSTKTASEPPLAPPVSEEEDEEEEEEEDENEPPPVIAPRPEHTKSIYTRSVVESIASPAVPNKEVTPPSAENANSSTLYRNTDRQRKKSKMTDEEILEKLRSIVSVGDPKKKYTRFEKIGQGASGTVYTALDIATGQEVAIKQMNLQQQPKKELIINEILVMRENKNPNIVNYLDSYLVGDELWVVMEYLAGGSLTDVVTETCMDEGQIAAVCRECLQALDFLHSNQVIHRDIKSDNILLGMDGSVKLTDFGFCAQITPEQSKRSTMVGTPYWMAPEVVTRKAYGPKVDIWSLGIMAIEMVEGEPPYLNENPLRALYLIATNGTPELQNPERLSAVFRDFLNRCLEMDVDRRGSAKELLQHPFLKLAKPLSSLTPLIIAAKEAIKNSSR
UniProt P07949, whole entry: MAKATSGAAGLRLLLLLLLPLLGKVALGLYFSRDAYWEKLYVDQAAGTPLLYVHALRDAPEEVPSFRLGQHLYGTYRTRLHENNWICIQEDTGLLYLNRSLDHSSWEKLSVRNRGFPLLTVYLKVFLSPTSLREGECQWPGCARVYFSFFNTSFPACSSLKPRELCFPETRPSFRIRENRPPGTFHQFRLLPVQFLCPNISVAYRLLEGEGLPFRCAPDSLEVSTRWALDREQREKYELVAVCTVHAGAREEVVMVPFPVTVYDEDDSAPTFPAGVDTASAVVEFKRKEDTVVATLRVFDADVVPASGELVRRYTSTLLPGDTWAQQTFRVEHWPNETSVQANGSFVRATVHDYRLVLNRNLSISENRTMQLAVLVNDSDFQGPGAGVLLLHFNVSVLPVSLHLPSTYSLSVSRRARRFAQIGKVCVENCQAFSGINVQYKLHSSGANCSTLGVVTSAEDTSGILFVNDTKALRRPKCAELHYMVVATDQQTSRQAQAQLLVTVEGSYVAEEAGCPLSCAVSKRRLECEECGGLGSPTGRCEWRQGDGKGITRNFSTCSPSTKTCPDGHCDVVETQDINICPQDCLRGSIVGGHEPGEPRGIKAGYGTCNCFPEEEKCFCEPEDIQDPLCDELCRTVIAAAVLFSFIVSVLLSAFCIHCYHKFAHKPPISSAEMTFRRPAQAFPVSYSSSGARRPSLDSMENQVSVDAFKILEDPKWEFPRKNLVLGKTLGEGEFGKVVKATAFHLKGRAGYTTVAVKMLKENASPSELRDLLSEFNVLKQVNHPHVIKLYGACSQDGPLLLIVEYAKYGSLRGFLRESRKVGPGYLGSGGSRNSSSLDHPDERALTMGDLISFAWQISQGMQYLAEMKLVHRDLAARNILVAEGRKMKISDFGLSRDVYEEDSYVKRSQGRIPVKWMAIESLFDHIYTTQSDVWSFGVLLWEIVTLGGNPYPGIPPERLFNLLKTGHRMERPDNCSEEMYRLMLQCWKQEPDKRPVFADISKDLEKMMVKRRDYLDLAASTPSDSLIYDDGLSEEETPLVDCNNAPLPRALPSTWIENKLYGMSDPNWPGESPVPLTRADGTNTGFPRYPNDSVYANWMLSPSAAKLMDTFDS
UniProt Q13464: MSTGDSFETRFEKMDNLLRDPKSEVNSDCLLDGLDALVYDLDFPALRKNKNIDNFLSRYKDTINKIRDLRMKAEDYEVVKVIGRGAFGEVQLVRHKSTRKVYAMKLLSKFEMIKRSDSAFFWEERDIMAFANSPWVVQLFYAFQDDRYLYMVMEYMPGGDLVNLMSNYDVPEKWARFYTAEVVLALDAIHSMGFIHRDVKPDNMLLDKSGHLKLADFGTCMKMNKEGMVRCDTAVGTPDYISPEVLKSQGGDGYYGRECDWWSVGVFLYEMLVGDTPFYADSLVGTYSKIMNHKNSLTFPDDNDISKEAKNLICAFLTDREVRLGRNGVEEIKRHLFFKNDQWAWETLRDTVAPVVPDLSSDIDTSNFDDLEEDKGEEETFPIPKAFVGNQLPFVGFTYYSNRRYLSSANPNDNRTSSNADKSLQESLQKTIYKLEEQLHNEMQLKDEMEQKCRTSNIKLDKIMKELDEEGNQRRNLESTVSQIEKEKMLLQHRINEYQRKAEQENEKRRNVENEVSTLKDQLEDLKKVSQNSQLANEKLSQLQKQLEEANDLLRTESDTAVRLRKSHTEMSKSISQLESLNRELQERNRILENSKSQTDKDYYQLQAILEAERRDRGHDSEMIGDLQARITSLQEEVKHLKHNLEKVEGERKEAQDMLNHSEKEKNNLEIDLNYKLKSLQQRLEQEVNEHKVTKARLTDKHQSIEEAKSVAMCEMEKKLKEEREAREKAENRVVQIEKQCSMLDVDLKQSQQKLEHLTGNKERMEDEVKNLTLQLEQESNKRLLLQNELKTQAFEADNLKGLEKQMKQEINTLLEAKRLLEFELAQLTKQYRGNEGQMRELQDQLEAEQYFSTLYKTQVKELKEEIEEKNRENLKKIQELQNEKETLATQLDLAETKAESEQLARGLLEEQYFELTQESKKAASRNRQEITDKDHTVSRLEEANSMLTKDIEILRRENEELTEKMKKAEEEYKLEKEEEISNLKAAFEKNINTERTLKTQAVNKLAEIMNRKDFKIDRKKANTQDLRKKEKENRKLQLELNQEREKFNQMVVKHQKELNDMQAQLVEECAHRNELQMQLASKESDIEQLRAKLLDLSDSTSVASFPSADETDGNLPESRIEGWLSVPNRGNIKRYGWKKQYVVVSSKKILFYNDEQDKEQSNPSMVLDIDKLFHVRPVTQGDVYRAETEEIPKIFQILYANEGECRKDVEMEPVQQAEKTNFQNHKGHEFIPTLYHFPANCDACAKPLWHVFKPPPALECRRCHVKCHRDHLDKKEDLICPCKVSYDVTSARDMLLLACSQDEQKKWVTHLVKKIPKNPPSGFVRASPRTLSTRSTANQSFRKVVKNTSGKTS
UniProt O00141: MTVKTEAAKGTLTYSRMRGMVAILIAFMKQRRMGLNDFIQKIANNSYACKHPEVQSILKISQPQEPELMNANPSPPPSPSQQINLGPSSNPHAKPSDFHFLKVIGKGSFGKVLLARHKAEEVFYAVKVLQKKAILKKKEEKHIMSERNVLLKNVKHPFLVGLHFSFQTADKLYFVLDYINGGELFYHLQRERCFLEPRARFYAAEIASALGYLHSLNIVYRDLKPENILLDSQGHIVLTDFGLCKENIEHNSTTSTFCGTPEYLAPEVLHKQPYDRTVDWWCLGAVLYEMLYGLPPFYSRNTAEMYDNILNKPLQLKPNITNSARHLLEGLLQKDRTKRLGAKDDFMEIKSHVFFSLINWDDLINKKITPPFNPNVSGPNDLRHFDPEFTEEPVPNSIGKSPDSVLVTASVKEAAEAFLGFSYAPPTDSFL
UniProt Q02763: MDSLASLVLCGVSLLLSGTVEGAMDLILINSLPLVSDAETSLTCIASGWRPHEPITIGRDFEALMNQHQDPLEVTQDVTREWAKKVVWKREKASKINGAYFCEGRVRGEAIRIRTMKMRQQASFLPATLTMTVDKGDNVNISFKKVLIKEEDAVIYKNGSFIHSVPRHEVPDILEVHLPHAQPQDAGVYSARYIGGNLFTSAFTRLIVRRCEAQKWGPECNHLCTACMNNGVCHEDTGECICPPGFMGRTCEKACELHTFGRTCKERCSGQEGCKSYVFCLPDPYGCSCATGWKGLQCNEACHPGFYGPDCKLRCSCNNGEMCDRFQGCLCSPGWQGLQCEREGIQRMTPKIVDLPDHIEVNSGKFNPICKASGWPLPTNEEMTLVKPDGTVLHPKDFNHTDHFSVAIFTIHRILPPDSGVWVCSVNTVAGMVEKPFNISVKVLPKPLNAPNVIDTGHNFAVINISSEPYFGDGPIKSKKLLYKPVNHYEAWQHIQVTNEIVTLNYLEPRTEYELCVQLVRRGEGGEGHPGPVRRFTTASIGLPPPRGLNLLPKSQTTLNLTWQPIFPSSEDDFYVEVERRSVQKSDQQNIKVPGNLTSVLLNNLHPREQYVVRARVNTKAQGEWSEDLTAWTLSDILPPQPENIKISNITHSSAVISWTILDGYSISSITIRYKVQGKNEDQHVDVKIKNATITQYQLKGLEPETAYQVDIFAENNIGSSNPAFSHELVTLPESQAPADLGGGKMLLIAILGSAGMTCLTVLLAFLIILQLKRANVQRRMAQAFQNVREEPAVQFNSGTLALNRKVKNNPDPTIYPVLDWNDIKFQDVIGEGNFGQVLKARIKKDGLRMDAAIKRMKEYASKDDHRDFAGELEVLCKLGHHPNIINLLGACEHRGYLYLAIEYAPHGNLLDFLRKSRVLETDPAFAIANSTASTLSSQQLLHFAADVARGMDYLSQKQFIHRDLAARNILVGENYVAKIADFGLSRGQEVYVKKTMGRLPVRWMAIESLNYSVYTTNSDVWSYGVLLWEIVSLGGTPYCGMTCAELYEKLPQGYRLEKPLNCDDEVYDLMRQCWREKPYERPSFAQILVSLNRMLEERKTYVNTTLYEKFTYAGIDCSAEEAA

Columns and labels:
Test in all cases: biochemical
Conditions in all cases: read-out: % remaining activity
[1] = target: T1, CAMK1a (Homo sapiens, UniProt Q14012)
T1 construct: gene CAMK1

[2] = target: CDK16/cyclin Y (Homo sapiens, UniProt Q00536)
[3] = target: CLK2 (Homo sapiens, UniProt P49760)
[4] = target: CSF1R (Homo sapiens, UniProt P07333)
[5] = target: DDR1 (Homo sapiens, UniProt Q08345)
[6] = target: DDR2 (Homo sapiens, UniProt Q16832)
[7] = target: EPHA5 (Homo sapiens, UniProt P54756)
[8] = target: EPHB3 (Homo sapiens, UniProt P54753)
[9] = target: FGFR1 (Homo sapiens, UniProt P11362)
[10] = target: FLT1 (Homo sapiens, UniProt P17948)
[11] = target: GRK3 (Homo sapiens, UniProt P35626)
[12] = target: GRK5 (Homo sapiens, UniProt P34947)
[13] = target: HIPK2 (Homo sapiens, UniProt Q9H2X6)
[14] = target: T2, IKKb (Homo sapiens, UniProt O14920)
T2 construct: gene IKBKB

[15] = target: ITK (Homo sapiens, UniProt Q08881)
[16] = target: MAP4K1 (Homo sapiens, UniProt Q92918)
[17] = target: MAP4K4 (Homo sapiens, UniProt O95819)
[18] = target: MAPKAPK3 (Homo sapiens, UniProt Q16644)
[19] = target: MARK2 (Homo sapiens, UniProt Q7KZI7)
[20] = target: T3, MRCKa (Homo sapiens, UniProt Q5VT25)
T3 construct: gene CDC42BPA

[21] = target: NEK11 (Homo sapiens, UniProt Q8NG66)
[22] = target: NEK3 (Homo sapiens, UniProt P51956)
[23] = target: PAK3 (Homo sapiens, UniProt O75914)
[24] = target: T4, PKAcg (Homo sapiens, UniProt P22612)
T4 construct: gene PRKACG

[25] = target: T5, PKCb1 (Homo sapiens, UniProt P05771)
T5 construct: gene PRKCB

[26] = target: T6, PKCg (Homo sapiens, UniProt P05129)
T6 construct: gene PRKCG

[27] = target: RET (Homo sapiens, UniProt P07949)
[28] = target: ROCK1 (Homo sapiens, UniProt Q13464)
[29] = target: T7, RSK1 (Homo sapiens, UniProt Q15418)
T7 construct: gene RPS6KA1

[30] = target: SGK1 (Homo sapiens, UniProt O00141)
[31] = target: SGK2 (Homo sapiens, UniProt Q9HBY8)
[32] = target: SGK3 (Homo sapiens, UniProt Q96BR1)
[33] = target: SYK (Homo sapiens, UniProt P43405)
[34] = target: TAOK1 (Homo sapiens, UniProt Q7L7X3)
[35] = target: T8, TIE2 (Homo sapiens, UniProt Q02763)
T8 construct: gene TEK

[36] = target: TXK (Homo sapiens, UniProt P42681)

**Q.** How did the remaining activity at 1 µM [1] turn out when `COc1cc(-c2nn(CCN3CCC(N(C)C)CC3)c3ncnc(N)c23)ccc1NC(=O)OC(C)(C)C` [eCF506] was run?
**A.** The remaining activity at 1 µM was 97.4%.

**Q.** What about the remaining activity at 1 µM [2] of the same molecule?
**A.** The remaining activity at 1 µM was 90.4%.

**Q.** What about the remaining activity at 1 µM [3] of the same molecule?
**A.** The remaining activity at 1 µM was 92.1%.

**Q.** And the remaining activity at 1 µM [4]?
**A.** The remaining activity at 1 µM was 103%.

**Q.** And the remaining activity at 1 µM [5]?
**A.** Its remaining activity at 1 µM is 79.6%.

**Q.** What about the remaining activity at 1 µM [6] of the same molecule?
**A.** The remaining activity at 1 µM was 102%.

**Q.** And the remaining activity at 1 µM [7]?
**A.** Its remaining activity at 1 µM is 92%.

**Q.** What about the remaining activity at 1 µM [8] of the same molecule?
**A.** Its remaining activity at 1 µM is 93.1%.

**Q.** And the remaining activity at 1 µM [9]?
**A.** Its remaining activity at 1 µM is 78%.

**Q.** And the remaining activity at 1 µM [10]?
**A.** Its remaining activity at 1 µM is 106%.

**Q.** What about the remaining activity at 1 µM [11] of the same molecule?
**A.** Its remaining activity at 1 µM is 109%.

**Q.** And the remaining activity at 1 µM [12]?
**A.** The remaining activity at 1 µM was 102%.

**Q.** And the remaining activity at 1 µM [13]?
**A.** The remaining activity at 1 µM was 95.2%.

**Q.** And the remaining activity at 1 µM [14]?
**A.** The remaining activity at 1 µM was 109%.

**Q.** And the remaining activity at 1 µM [15]?
**A.** Its remaining activity at 1 µM is 98.2%.

**Q.** What about the remaining activity at 1 µM [16] of the same molecule?
**A.** The remaining activity at 1 µM was 99.8%.

**Q.** What about the remaining activity at 1 µM [17] of the same molecule?
**A.** The remaining activity at 1 µM was 97.3%.

**Q.** And the remaining activity at 1 µM [18]?
**A.** The remaining activity at 1 µM was 97.7%.

**Q.** What about the remaining activity at 1 µM [19] of the same molecule?
**A.** The remaining activity at 1 µM was 99.5%.

**Q.** What about the remaining activity at 1 µM [20] of the same molecule?
**A.** The remaining activity at 1 µM was 97.9%.

**Q.** And the remaining activity at 1 µM [21]?
**A.** Its remaining activity at 1 µM is 75.3%.

**Q.** And the remaining activity at 1 µM [22]?
**A.** Its remaining activity at 1 µM is 98%.

**Q.** And the remaining activity at 1 µM [23]?
**A.** Its remaining activity at 1 µM is 87.3%.

**Q.** What about the remaining activity at 1 µM [24] of the same molecule?
**A.** The remaining activity at 1 µM was 102%.

**Q.** What about the remaining activity at 1 µM [25] of the same molecule?
**A.** Its remaining activity at 1 µM is 99.8%.

**Q.** And the remaining activity at 1 µM [26]?
**A.** Its remaining activity at 1 µM is 96.7%.

**Q.** And the remaining activity at 1 µM [27]?
**A.** Its remaining activity at 1 µM is 98.6%.

**Q.** What about the remaining activity at 1 µM [28] of the same molecule?
**A.** The remaining activity at 1 µM was 110%.

**Q.** What about the remaining activity at 1 µM [29] of the same molecule?
**A.** Its remaining activity at 1 µM is 72.2%.

**Q.** And the remaining activity at 1 µM [30]?
**A.** The remaining activity at 1 µM was 98.9%.

**Q.** And the remaining activity at 1 µM [31]?
**A.** The remaining activity at 1 µM was 106%.

**Q.** And the remaining activity at 1 µM [32]?
**A.** The remaining activity at 1 µM was 83.4%.

**Q.** What about the remaining activity at 1 µM [33] of the same molecule?
**A.** The remaining activity at 1 µM was 104%.

**Q.** And the remaining activity at 1 µM [34]?
**A.** The remaining activity at 1 µM was 95%.

**Q.** What about the remaining activity at 1 µM [35] of the same molecule?
**A.** Its remaining activity at 1 µM is 104%.

**Q.** And the remaining activity at 1 µM [36]?
**A.** Its remaining activity at 1 µM is 9.1%.
